## Apparent affinities of Ab-14 variants for a coronavirus HR2 peptide

Data: MIT Lincoln Laboratory AlphaSeq set, Engelhart et al. 2022, doi:10.1038/s41597-022-01779-4, as distributed in FLAb.

Antigen: PDVDLGDISGINAS, a 14-residue peptide of the SARS-CoV-2 spike HR2 region.

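The starting antibody came from a phage panning campaign against this peptide. Library AAYL50 holds single substitutions and randomly drawn double and triple substitutions in the CDRs. The assay is AlphaSeq: two haploid yeast populations carry antibody and antigen on their surface. Pairs that bind mate more often; barcode pairs of the diploids are counted by sequencing. A regression on co-assayed BCL2-family reference pairs converts the normalised counts of each replicate to an apparent Kd. Each pool was mated in three replicate cultures.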

Each scFv is VH, a 15-residue (Gly4Ser)3 linker, VL, as in the parent Ab-14, and differs from it in the CDRs of the light chain only.
VH: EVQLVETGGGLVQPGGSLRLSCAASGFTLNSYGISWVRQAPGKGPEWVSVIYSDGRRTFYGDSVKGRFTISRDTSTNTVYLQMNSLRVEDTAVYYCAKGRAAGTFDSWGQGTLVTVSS
VL: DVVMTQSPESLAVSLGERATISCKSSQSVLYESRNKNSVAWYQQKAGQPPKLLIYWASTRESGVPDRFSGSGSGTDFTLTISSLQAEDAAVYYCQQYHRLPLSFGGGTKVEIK

The parent's light chain CDRs are KSSQSVLYESRNKNSVA, WASTRES, QQYHRLPLS; each variant's own CDRs replace them letter for letter. All variants listed here change S33 of the VL, counted from its first residue. Affinities are written as log10 Kd with Kd in nM; a lower number is a better binder. The mean shown is taken over the replicates in which the pair was detected. A pair that was not seen in that replicate is written "nd"; this usually means weak binding, but a binder can also be missed. Entries are sorted by rising average, undetected variants last. Nonspecific signal, from three strains lacking the peptide, appeared in 18% of pairings of library AAYL50, centred on 4.19 (5% of these signals below 2.99); values are not corrected for it.

With KSSQSVLYEHRMKNSVA, QASTRES, QQYHRLPLS the result was 0.40, 0.65, 0.52 (mean 0.52).
With KSSQSVYYELINKNSVA, WASTRES, QQYHRLPLS the result was 0.82, 0.44, 0.59 (mean 0.62).
With KSSQSVLKEDRLKNSVA, WASTRES, QQYHRLPLS the result was 0.58, 0.77, 0.66 (mean 0.67).
With KSSQSVVYEDRNKNSVA, WASTRNS, QQYHRLPLS the result was 0.65, 0.95, 0.83 (mean 0.81).
With KSSQSVSYEYRNKNSVA, WASTRES, QQYHRLPLS the result was 0.75, 1.02, 0.91 (mean 0.89).
With KSSQSVLYENLNKNSVA, WMSTRES, QQYHRLPLS the result was 1.26, 0.89, 1.11 (mean 1.09).
With KSSQSVLYEARNKNSVA, WASTRMN, QQYHRLPLS the result was 1.21, 0.94, 1.23 (mean 1.13).
With KSSQSMLYELRNKNSVA, WASTRES, QQDHRLPLS the result was 1.10, 1.26, 1.20 (mean 1.19).
With KSSQSVLYEQRNKNSVA, WASTRLN, QQYHRLPLS the result was 1.15, 1.32, 1.34 (mean 1.27).
With KSSQSVLYQFNNKNSVA, WASTRES, QQYHRLPLS the result was 1.52, 1.44, 1.64 (mean 1.54).
With KSSQSVLYEKRHKNSVA, SASTRES, QQYHRLPLS the result was 1.84, 1.78, 2.10 (mean 1.91).
With KSSQSALYEDRNKNSVA, WASTRES, QQYHWLPLS the result was 1.66, 1.26, 3.10 (mean 2.00).
With KSSQSVLYEYRNKNSVA, WASTRES, AQYHRLPLS the result was nd, nd, 2.07.
With KSNQSVLYEHRNKNSVA, WASTRHS, QQYHRLPLS the result was 2.00, 2.05, 2.94 (mean 2.33).
With KSSQSVLYEKRNKNSVA, WASTRLS, QQYHRLPLG the result was 2.28, 2.00, 3.18 (mean 2.49).
With NSSQRVLYENRNKNSVA, WASTRES, QQYHRLPLS the result was 3.46, 2.74, 3.02 (mean 3.08).
With KSSQKVLYELRNKNSVA, WASTVES, QQYHRLPLS the result was nd, 3.34, 3.51 (mean 3.43).
With KSSQNVLYEIRNKNSVA, WASTRES, QQYHRLPLS the result was 3.17, 3.71, 4.33 (mean 3.73).
With KDSQSVLYEHRNKNSVM, WASTRES, QQYHRLPLS the result was 4.27, nd, nd.
With TSSQSVLYEARNKNSVT, WASTRES, QQYHRLPLS the result was 3.83, 4.95, nd (mean 4.39).
With KSSCSVLYEPRNKNSYA, WASTRES, QQYHRLPLS the result was nd, nd, 4.65.
With KSSQSVLYECRNKNSNA, WASTREA, QQYHRLPLS the result was 4.85, nd, nd.
With KSSQSVLYEHRNKNSVA, WASTRES, CEYHRLPLS the result was nd, 4.96, nd.
With KSSQSVLYLIRNKNSVA, WSSTRES, QQYHRLPLS the result was 5.28, nd, 4.71 (mean 5.00).
With GSSQSVLYEGRNKNSVA, WASTRES, QQYHQLPLS the result was 3.85, 5.69, 6.46 (mean 5.33).
With KSSQTVLYEFRNKNSVA, WASTRES, QGYHRLPLS the result was nd, nd, nd.
With KSSQSVLYERRNKNCVA, WASTRES, QQYHRLPLS the result was nd, nd, nd.
With KSSQSVLYHCRNKNSVA, WASTRES, QQYHRLRLS the result was nd, nd, nd.
With KSSQSVLYEDRNKNSWA, WASTRES, QQYHPLPLS the result was nd, nd, nd.
With VSSQSVLYEMRNKNSVA, WASTRES, QQYHWLPLS the result was nd, nd, nd.
With KSIQSVLYEQRNKNSVA, WASTDES, QQYHRLPLS the result was nd, nd, nd.
With KSSQSVLYEFRNKNVVA, WASTRES, TQYHRLPLS the result was nd, nd, nd.
With KSSQSVLYELRNKNSVP, WASTRES, QIYHRLPLS the result was nd, nd, nd.
With KSSQSVLYEHRNKNSVA, WASTRES, QQYHRQPLS the result was nd, nd, nd.
With KSSQSSLYEHRCKNSVA, WASTRES, QQYHRLPLS the result was nd, nd, nd.
With KSSQSVLYMTRNKNSVA, WASTSES, QQYHRLPLS the result was nd, nd, nd.

A selection of 3 entries from above:

KSSQSVLYEHRNKNSVA, WASTRES, QQYHRQPLS: nd, nd, nd.
KSSCSVLYEPRNKNSYA, WASTRES, QQYHRLPLS: nd, nd, 4.65.
KSSQSVLYEDRNKNSWA, WASTRES, QQYHPLPLS: nd, nd, nd.

For reference, the parent read 0.65 as the reference entry and 1.68 as a member of this library.